{
  "source": "patent US8765166B2",
  "about": "“Drug delivery devices for delivery of ocular therapeutic agents” (Aerie Pharmaceuticals, Inc., priority 2010, dated 2014)",
  "source_text": "The active agent may be any active agent suitable to treat the desired condition. […] Examples include, but are not limited to, acetazolamide, dorzolamide HCl, timolol maleate, and ethacrynic acid sodium salt.",
  "data": [
    {"substance": "albumin: albumin, approximately 67 kDa, labeled with fluorescein isothiocyanate (BSA-FITC, Fluka), mixed with unlabeled albumin", "values": [
      {"measurement": "solubility class", "result": "high solubility"}
    ]}
  ]
}
